# Source: ChEMBL document CHEMBL1153819, “Use of acetylcholine binding protein in the search for novel alpha7 nicotinic receptor ligands. In silico docking, pharmacological screening, and X-ray analysis” (J Med Chem, 2009)
# Amino acid sequences for entries named in this document (tags omitted).
# UniProt P58154, whole entry: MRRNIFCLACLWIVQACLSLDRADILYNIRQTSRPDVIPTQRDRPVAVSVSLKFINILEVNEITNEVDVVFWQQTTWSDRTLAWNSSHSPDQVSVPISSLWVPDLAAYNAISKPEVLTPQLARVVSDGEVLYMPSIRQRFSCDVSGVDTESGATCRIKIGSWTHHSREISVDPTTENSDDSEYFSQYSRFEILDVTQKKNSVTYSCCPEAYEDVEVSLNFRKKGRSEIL
# Target: Acetylcholine-binding protein (Lymnaea stagnalis, UniProt P58154)
# Assay: Displacement of [125I]alpha-bungarotoxin from Lymnaea stagnalis His-tagged AchBP
structure (smiles),measurement,value
CN1CCC[C@H]1c1cccnc1 [NICOTINE],Ki,63.1 nM
